This assay deals with dopamine 2 receptor (DRD2) (Rattus norvegicus, UniProt P61169).

Results on 1 compound are retold here after patent US11325952B2, “Light-gated signaling modulation” (Korea University Research and Business Foundation, priority 2016, dated 2022).

Each structure is given as a SMILES string.

In the case of `CCCN1CCC[C@@H]2Cc3n[nH]cc3C[C@H]21` [quinpirole], the “gene expression upon DRD2 agonist” value is “dose-dependent manner”.
